Target: T1, Histone deacetylase 8 (Homo sapiens, UniProt Q9BY41)
T1 sequence (Q9BY41 whole entry): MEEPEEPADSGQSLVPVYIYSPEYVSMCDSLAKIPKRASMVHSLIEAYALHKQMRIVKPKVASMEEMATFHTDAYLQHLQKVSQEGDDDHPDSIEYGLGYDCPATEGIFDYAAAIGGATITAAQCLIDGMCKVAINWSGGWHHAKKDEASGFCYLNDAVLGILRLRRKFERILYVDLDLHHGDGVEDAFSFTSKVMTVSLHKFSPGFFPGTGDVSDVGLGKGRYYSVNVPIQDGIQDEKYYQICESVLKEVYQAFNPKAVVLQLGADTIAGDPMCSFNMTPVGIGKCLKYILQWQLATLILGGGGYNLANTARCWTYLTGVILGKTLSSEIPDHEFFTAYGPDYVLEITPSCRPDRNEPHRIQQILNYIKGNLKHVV
Experiment: Inhibition of recombinant human HDAC8 enzyme using Ac-LeuGlyLys (tfa)-AMC as substrate after 15 to 30 mins

`O=C(CCCCCCC(=O)Nc1ccccc1)NO` [VORINOSTAT] was tested, and the Ki was 700 nM.

Reference: ChEMBL document CHEMBL2417416, “Total synthesis and full histone deacetylase inhibitory profiling of Azumamides A-E as well as β²- epi-Azumamide E and β³-epi-Azumamide E” (J Med Chem, 2013)
